# Assay results from patent US4049898A (priority 1975, dated 1977).
substance,measurement,value
Amphotericin B-Calcium-Oxalic Acid Complex [Example 1],solubility in water at pH 2,3.44 g/l
